Data reported in US5663180A (dated 1997).

Tested on: RAT PAW EDEMA
Test: Rat Carrageenan Foot Pad Edema Test
Conditions: po, 3 h, read-out: RAT PAW EDEMA % Inhibition

## CSc1ccc(C2=C(c3ccc(S(C)(=O)=O)cc3)CCC2)cc1
  inhibition in vivo at 10 mg/kg: 28%
